Results published in EP4834341A1, “PHARMACEUTICAL COMPOSITION AND METHOD FOR TREATING AND/OR PREVENTING CORNEAL INJURY” (dated 2026).

Assays:
[1] = test system: mouse corneal epithelial abrasion model; experiment: Corneal nerve density in mouse corneal epithelial abrasion model (GFP transgenic mice, fluorescence microscopy, Image J); conditions: 50 mg/kg once daily, one week
Experimental: Example 3: Testing the effects of 7,8-DHF on corneal nerve protection and promotion of corneal nerve growth in a mouse corneal epithelial abrasion model.
• A. Mouse corneal epithelial abrasion model: After mice were anesthetized, the corneal epithelium was removed to expose the corneal stroma using an electric cornea burr. The wound was horizontally extdented to the limbus. • B. 7,8-DHF Treatment: Administration was initiated after modeling, once daily, at a dose of 50 mg/kg. After 7 days of administration, the mice were subjected to cardiac perfusion and tissue collection. The entire cornea was harvested to prepare flat wholemounts, which were then imaged under a fluorescence microscope.
In Example 3 of the present disclosure, transgenic mice were used. The corneal nerves of the transgenic mice specifically express green fluorescent protein, and thus the distribution of corneal nerves can be visualized by green fluorescence signals. The primary distribution features of corneal nerves are: corneal stromal nerve trunks, subbasal nerve plexus, and intraepithelial nerve terminals.
(§1) Images were acquired using a fluorescence microscope. After corneal nerve density was analyzed and quantified using the image analysis software Image J, intergroup statistical comparison was performed.

[2] = test system: BAC eye drop-induced mouse model; experiment: Tear test (phenol red thread) in BAC eye drop-induced mouse model; conditions: 100 mg/kg orally twice per day
Experimental: (§2) Example 1: Testing the effects of 7,8-DHF on corneal epithelial injury, neurotrophic keratitis, and dry eye disease in a BAC eye drop-induced mouse model.
(§3) Normal control group: Mice received topical administration of 5 µL saline to each eye twice daily for 7 consecutive days.
(§4) Model group: Mice received topical administration of 5 µL 0.1 % BAC to each eye twice daily for 7 consecutive days.
(§5) 7,8-DHF treatment group: Mice received topical administration of 5 µL 0.1% BAC to each eye twice daily for 7 consecutive days. Starting from Day 3 of 0.1% BAC administration, 7,8-DHF was administered orally twice per day at a dose of 100 mg/kg body weight with an administration volume of 10 µL/g, and the 7,8-DHF treatment lasted for 7 days.
Tear testing method: Designating the first day of adiministation to the model group as Day 1. Tear tests were performed on Days 5 and Day 10 for the model group, treatment group, and normal control group, respectively. The testing method was as follows: After being anesthesiad, the mouse lower eyelid was gently pulled open, and a phenol red thread was inserted into the outer third of the eyelid using forceps. Timing began immediately, and after 1 minute, the length of the reddened cotton thread was measured and recorded.

[3] = test system: mouse corneal alkali burn model; experiment: Corneal nerve density in mouse corneal alkali burn model (GFP transgenic mice, fluorescence microscopy, Image J); conditions: 50 mg/kg once daily, one week, quantified with Image J, versus model group (FIG. 5)
Experimental: Example 2: Testing the effects of 7,8-DHF on corneal nerve protection and promotion of corneal nerve growth in a mouse corneal alkali burn model
• A. Preparation of an alkali burn solution: 0.4 g of sodium hydroxide powder was weighed and dissolved in 10 mL of deionized water. • B. Mouse corneal alkali burn model: Filter paper discs with a diameter of 2 mm were prepared. After the mice were anesthesiad, 1 µL of the alkali solution was applied onto the filter paper discs. Once the filter paper discs were completely soaked with the alkali solution, they were placed onto the center of the cornea. After 8 seconds, the filter paper discs were immediately removed, and the eyeballs were rinsed with 10 mL of PBS.
7,8-DHF Treatment: Administration was initiated after modeling, once daily, at a dose of 50 mg/kg. […] The entire cornea was harvested to prepare flat wholemounts, which were then imaged under a fluorescence microscope.
In Example 2 of the present disclosure, transgenic mice were used. The corneal nerves of the transgenic mice specifically express green fluorescent protein, and thus the distribution of corneal nerves can be marked by green fluorescence signals. […]
as §1

[4] = test system: BAC eye drop-induced mouse model; experiment: Corneal fluorescein staining in BAC eye drop-induced mouse model; conditions: 7,8-DHF orally twice per day 100 mg/kg from Day 3 of 0.1% BAC, 7 days; scored Day 5 and Day 10; compared with the model group (FIG. 1)
Experimental: as §2, §3, §4, §5
Corneal Fluorescein Staining: Designating the first day of adiministration to the model group as Day 1. Corneal fluorescein staining was performed on Day 5 and Day 10 for the model group, treatment group, and normal control group, respectively. The staining procedure was as follows: after mice were anesthetized, 5 µL of 0.1% sodium fluorescein was instilled into each eye of the mice, the eyes were kept closed for several seconds to allow the sodium fluorescein to distribute as evenly as possible across the cornea, and then observed under a slit lamp. The cornea was divided into four regions, and scores were recorded for each region. […]

`O=c1cc(-c2ccccc2)oc2c(O)c(O)ccc12` was tested, and the “density of corneal nerve distribution (density of corneal nerve staining signals) at the levels of the corneal stromal nerve trunks, subbasal nerve plexus, and intraepithelial nerve terminals” value ([1]; compared with the model group (FIG. 4)) was “significantly increased”, the corneal nerve density ([1]; quantified with Image J, versus model group (FIG. 6)) was “significantly higher” and the tear volume ([2]; after 7 days of 7,8-DHF treatment, versus normal control group (FIG. 2)) was “comparable to that in the normal control group”. For the same compound, the tear volume ([2]; second day after the start of 7,8-DHF treatment, compared to the model group (FIG. 2)) was “increased significantly”, the corneal nerve density [3] was “significantly higher” and the “corneal fluorescein staining scores” value [4] was “significantly lower”.
